Results: publication PMC8484140 (Targeted Oncology, 2021)

Experiment: Plasma pharmacokinetics of entinostat
Type: in vivo, human

Nc1ccccc1NC(=O)c1ccc(CNC(=O)OCc2cccnc2)cc1 [Entinostat] gave a CL/F (Day 1, 3 mg oral, N=3*, mean ± SD) of 5.42 ± 1.26 L/h, a CL/F (Day 1, 5 mg oral, N=12, mean ± SD) of 5.08 ± 1.31 L/h and a CL/F (Day 1, 7 mg oral, N=3, mean ± SD) of 5.15 ± 0.76 L/h. For the same compound, the CL/F (Day 22, 3 mg/week oral, N=3*, mean ± SD) was 4.94 ± 0.36 L/h, the CL/F (Day 22, 5 mg/week oral, N=12, mean ± SD) was 4.00 ± 0.85 L/h and the CL/F (Day 22, 7 mg/week oral, N=3, mean ± SD) was 4.45 ± 1.14 L/h.
